{"source": "paper PMC8916116", "about": "(The Journal of Experimental Medicine, 2022)", "key": {"[1]": {"test_system": "phosphorylated Erk1/2", "experiment": "Western blot for phosphorylated Erk1/2 in iKras cells", "assay_type": "cell-based, mouse", "settings": "without doxycycline 48 h, 100 nM for 6 h"}, "[2]": {"test_system": "PDX260 (KRAS G12D PDA) and PDX TM00186 (KRAS G12C NSCLC)", "experiment": "PDX models, monotherapy", "assay_type": "in vivo, NSG mice", "settings": "equimolar doses: COBI 7.5 mg/kg, TRX-COBI 12 mg/kg, daily IP 25 d"}}}
{"smiles": "O=C(c1ccc(F)c(F)c1Nc1ccc(I)cc1F)N1CC(O)([C@@H]2CCCCN2)C1", "note": "[COBI, cobimetinib, reference compound]", "values": [{"measurement": "inhibition of MEK by phospho-ERK levels in uninduced iKras cells", "setting": "[1]", "value": "sensitive"}, {"measurement": "tumor growth relative to vehicle", "setting": "[2]", "value": "significantly inhibited tumor growth"}]}
